# Ab-14 light chain CDR variants: yeast mating affinities

All variants were tested on one target, the spike HR2 peptide PDVDLGDISGINAS (SARS-CoV-2).

Parent: Ab-14, a human scFv built as VH, a 15-residue (Gly4Ser)3 linker, VL. Only the CDRs of the light chain vary.
VH: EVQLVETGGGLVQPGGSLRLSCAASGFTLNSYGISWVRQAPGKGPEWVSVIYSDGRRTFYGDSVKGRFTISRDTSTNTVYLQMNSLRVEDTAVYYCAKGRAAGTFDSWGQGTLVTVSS
VL: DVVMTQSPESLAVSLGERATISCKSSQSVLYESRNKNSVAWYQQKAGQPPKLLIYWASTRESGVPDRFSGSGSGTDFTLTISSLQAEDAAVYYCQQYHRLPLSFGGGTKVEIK

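Library AAYL50 holds single substitutions and randomly drawn double and triple substitutions in the CDRs. In AlphaSeq, yeast of one mating type display the scFv and yeast of the other type display the target. After mating in shaken culture at 30 °C for 16 h, diploids were selected and their barcode pairs sequenced. Read counts were normalised to the haploid input and turned into Kd by a linear fit to BCL2-family pairs of known affinity, for each replicate. The assay was run in three technical replicates.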

The parent's light chain CDRs are KSSQSVLYESRNKNSVA, WASTRES, QQYHRLPLS; each variant's own CDRs replace them letter for letter. The read-out is the apparent dissociation constant on a log10 scale (nM): the lower, the stronger. The mean shown is taken over the replicates in which the pair was detected. "nd" marks a missing value. The strain was present, yet no cells mated with the target were sequenced in that replicate, which points to weak or no binding. Nonspecific signal, from three strains lacking the peptide, appeared in 18% of pairings of library AAYL50, centred on 4.19 (5% of these signals below 2.99); values are not corrected for it. The control count says in how many pairings with the empty strains this scFv gave a signal, with their mean in brackets.

CDR-L1 | CDR-L2 | CDR-L3 | log10 Kd (nM) by replicate | mean log10 Kd (nM) | signal with controls
PWSQSVLYESRNKTSVA | WASTRES | QQYHRLPLS | nd / 3.74 / nd | 3.74 | 0/9
KSSQSVLYESRGKNSVA | WASTRES | QQYHRLKWS | 1.27 / 1.33 / 1.81 | 1.47 | 1/9 (2.79)
KSSQSVLYESRNKNSVA | WASSRES | QQYHRLTCS | 1.83 / 2.12 / 1.88 | 1.94 | 1/9 (3.57)
KSSQSVLYEPRNKNSVK | WWSTRES | QQYHRLPLS | nd / nd / nd | nd | 0/9
KSSQSVLYESRNKNSVA | WASTSGS | QQYHRLPLS | 3.87 / 4.91 / 4.23 | 4.34 | 3/9 (4.49)
KSQQSVTYESRNKKSVA | WASTRES | QQYHRLPLS | nd / 4.72 / nd | 4.72 | 3/9 (3.47)
KSSQSGLYESRNKNSVA | WASTSES | QWYHRLPLS | nd / nd / nd | nd | 0/9
KSSDSVLYESRNKNSVA | RASTRES | QQYHRLPKS | 0.67 / 1.09 / 0.86 | 0.87 | 1/9 (3.52)
KSSQSVLYESHNKNSVA | WASTPKS | QQYHRLPLS | nd / nd / nd | nd | 0/9
KSSQSVLYRSRNKNSLA | WASSRES | QQYHRLPLS | 3.54 / 3.14 / nd | 3.34 | 0/9
KSSQSVLYESRNKNSVA | WASTRQS | QQYHGLPLT | 2.40 / 2.81 / nd | 2.61 | 0/9
KSSQIVSYESRNKNSVA | WASTRES | QQQHRLPLS | nd / nd / nd | nd | 3/9 (4.22)
KSSQSVVYNSRNKNSVA | WASTRES | QQYHRLPLS | 1.37 / 1.37 / 1.63 | 1.46 | 4/9 (4.47)
KSSQSVTYESRNKGSVA | WASTRES | QQYHRLPFS | 1.15 / 0.77 / 1.07 | 1.00 | 0/9
KSSQSVLGESRSKNSVA | WASTRES | NQYHRLPLS | nd / nd / nd | nd | 2/9 (4.31)
KSPLSVQYESRNKNSVA | WASTRES | QQYHRLPLS | 1.29 / 1.65 / 1.56 | 1.50 | 4/9 (4.69)
KSSQSVIYESRNKVSVA | WCSTRES | QQYHRLPLS | 4.96 / 5.26 / 3.77 | 4.66 | 6/9 (4.53)
KSSQSVLYESRNKNSVA | WASTIES | QQYHRFPCS | 6.15 / 3.51 / nd | 4.83 | 4/9 (4.61)
KSSQSVLYESRNMNSVA | WASTRES | VQYVRLPLS | 0.69 / 1.10 / 0.88 | 0.89 | 2/9 (4.63)
KSSQSVLYESRNKNSVA | WASTRES | QQYMRLPSS | nd / nd / nd | nd | 0/9
KSSQSVLYESRNKNSVA | WASTRES | CQYHRLQLS | 1.40 / 1.59 / 1.68 | 1.56 | 5/9 (4.09)
KSSHSSLWESRNKNSVA | WASTRES | QQYHRLPLS | -0.62 / -0.20 / -0.38 | -0.40 | 1/9 (2.81)
KSSREVLYESRNKNSVA | WASTRES | QQYQRLPLS | 1.04 / 1.03 / 1.05 | 1.04 | 2/9 (4.83)
KSSQSVLYESRNKNSVG | WASTREE | QQYHRLPWS | nd / nd / nd | nd | 3/9 (3.80)
KSSQSVLNESRNKNQVA | WASTRES | QQYHRLPLS | 1.74 / 1.39 / 2.14 | 1.76 | 0/9
KSSQSVLYESRNKNSIA | WANTRES | QQYHRLFLS | 2.38 / 1.98 / 2.00 | 2.12 | 1/9 (3.95)
KSSQSVVYESRNKNSVL | WASTRES | QQYSRLPLS | nd / nd / nd | nd | 2/9 (2.80)
KSSQYVLYESRNKNSVA | WAYTRES | QQYLRLPLS | nd / 3.75 / 3.27 | 3.51 | 1/9 (4.57)
KSSQSVLSESRNKNSVA | WASRRES | QQYHRLPLM | 1.13 / 1.48 / 1.01 | 1.21 | 1/9 (2.69)
KSSQSVLYEYRNKNSVA | WASTREC | QQYHRLPLS | 1.96 / 1.87 / 2.04 | 1.96 | 4/9 (4.47)
KSSQSVLYESRNKNSVQ | IAQTRES | QQYHRLPLS | nd / nd / nd | nd | 0/9
KSSQSVWYESRNPNSVA | WASTRES | YQYHRLPLS | nd / nd / nd | nd | 0/9
KSSQAVLYESRNKNSVY | WASTRES | QTYHRLPLS | nd / nd / nd | nd | 0/9
KQSQSVLYESRNKNSVA | WASTRES | QQYHRAPLS | nd / nd / 5.89 | 5.89 | 2/9 (4.29)
KSAQSVLYESRNKNSVA | WASTREA | QQYHRLSLS | 5.26 / nd / nd | 5.26 | 1/9 (4.19)
VSSQSVLYESRNKNSVA | WASTRES | QQQHRLPLR | nd / nd / nd | nd | 1/9 (3.94)
KSSQSVLYESRNKNSVA | WAHTRES | QQYHYLPVS | nd / nd / 4.56 | 4.56 | 2/9 (5.42)
KSSQSVLYESRNMHSVA | WASTRES | QQYHRLPLS | 0.71 / 0.95 / 0.79 | 0.82 | 4/9 (5.17)
KSSQSVVYEDRNKNSVA | WASTRES | QQYHRLPLS | 0.65 / 0.87 / 0.68 | 0.74 | 2/9 (2.98)
KSSQSVLYESSNKNSVA | WASTRES | QQYHRLFHS | nd / nd / nd | nd | 1/9 (4.40)
KSSQSVLYESFNKNSVA | WASTRES | QQYHRLPSS | 0.86 / 1.03 / 0.97 | 0.95 | 4/9 (3.64)
KSSQSVSYESRNKNSVA | WASTRES | SQYHGLPLS | 4.08 / 3.18 / 3.57 | 3.61 | 3/9 (4.01)
KSWQSVPYESRNKNSVA | WGSTRES | QQYHRLPLS | 1.21 / 0.86 / 0.61 | 0.90 | 1/9 (2.57)

For reference, 2 entries of the list once more:

{"CDR-L1": "KSWQSVPYESRNKNSVA", "CDR-L2": "WGSTRES", "CDR-L3": "QQYHRLPLS", "log10 Kd (nM) by replicate": "1.21 / 0.86 / 0.61", "mean log10 Kd (nM)": "0.90", "signal with controls": "1/9 (2.57)"}
{"CDR-L1": "KSSQYVLYESRNKNSVA", "CDR-L2": "WAYTRES", "CDR-L3": "QQYLRLPLS", "log10 Kd (nM) by replicate": "nd / 3.75 / 3.27", "mean log10 Kd (nM)": "3.51", "signal with controls": "1/9 (4.57)"}

The measurements come from Engelhart et al. 2022 (doi:10.1038/s41597-022-01779-4) through the FLAb antibody collection.